According to ChEMBL document CHEMBL5236559 (J Med Chem, 2021):

Legend:
[1] = molecular target: T1, Glutathione reductase, mitochondrial (Homo sapiens) (UniProt P00390); experiment: Inhibition of glutathione reductase (unknown origin) incubated for 30 mins in presence of NADPH by spectrophotometric method
T1 sequence (whole entry): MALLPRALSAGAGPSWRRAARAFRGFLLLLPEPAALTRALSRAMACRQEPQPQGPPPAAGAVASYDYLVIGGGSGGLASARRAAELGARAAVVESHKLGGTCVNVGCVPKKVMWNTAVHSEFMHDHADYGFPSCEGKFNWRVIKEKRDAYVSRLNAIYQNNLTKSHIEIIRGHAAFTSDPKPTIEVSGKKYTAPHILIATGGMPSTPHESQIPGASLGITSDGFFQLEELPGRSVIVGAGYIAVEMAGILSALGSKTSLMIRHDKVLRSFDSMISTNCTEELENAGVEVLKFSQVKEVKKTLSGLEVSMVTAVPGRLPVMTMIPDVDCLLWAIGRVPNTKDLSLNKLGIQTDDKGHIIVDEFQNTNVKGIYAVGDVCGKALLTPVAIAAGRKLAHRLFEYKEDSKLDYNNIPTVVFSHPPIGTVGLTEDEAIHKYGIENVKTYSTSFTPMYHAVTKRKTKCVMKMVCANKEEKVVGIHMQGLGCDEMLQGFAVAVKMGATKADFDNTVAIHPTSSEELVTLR

HL-60 [2] = experiment: Inhibition of TrxR in human HL-60 cells at 2 uM incubated for 24 hrs by endpoint insulin reduction assay relative to control
HL-60 [3] = experiment: Induction of apoptosis in human HL-60 cells at 0.5 to 1 uM incubated for 24 hrs by Hoechst 33342 Staining based assay; settings: dose 0.5-1 µM
HL-60 [4] = experiment: Inhibition of TrxR activity in human HL-60 cells incubated for 8 hrs by TRFS-green staining based microscopic analysis; settings: dose 0.5-2 µM
HeLa = experiment: Cytotoxicity against human HeLa cells expressing TrxR assessed as reduction in cell viability incubated for 48 hrs by MTT assay
HL-60 [5] = experiment: Induction of apoptosis in human HL-60 cells assessed as decrease in procaspase-3 level incubated for 12 hrs by Western blot analysis; settings: dose 0.5-1 µM
HL-60 [6] = experiment: Induction of apoptosis in human HL-60 cells incubated for 24 hrs by annexinV-FITC/propidium iodide staining based flow cytometry analysis; settings: dose 0.5-1 µM
HL-60 [7] = experiment: Induction of apoptosis in human HL-60 cells assessed as increase in cleaved caspase-3 level incubated for 12 hrs by Western blot analysis; settings: dose 0.5-1 µM
HL-60 [8] = experiment: Induction of apoptosis in human HL-60 cells assessed as activation of caspase-3 expression at 0.5 to 1 uM incubated for 12 hrs by colorimetric assay; settings: dose 0.5-1 µM
HL-60 [9] = experiment: Induction of ROS production in human HL-60 cells assessed as increase in red fluorescence incubated for 2 hrs by DHE staining based fluorescent microscopic analysis; settings: dose 10.0 µM
HL-60 [10] = experiment: Induction of ROS production in human HL-60 cells assessed as increase in fluorescence intensity at 10 uM incubated for 2 hrs by DCFH-DA staining based fluorescent microscopic analysis

Row | SMILES | inhibition [1] | inhibition (HL-60 [2]) | Activity (HL-60 [3]) | inhibition (HL-60 [4]) | Activity (HeLa) | Activity (HL-60 [5]) | Activity (HL-60 [6]) | Activity (HL-60 [7]) | Activity (HL-60 [8]) | Activity (HL-60 [9]) | Activity (HL-60 [10])
1 | Nc1cccc([As]2SCCCS2)c1 | Active | 60% |  |  |  |  |  |  |  |  | 
2 | Nc1ccccc1[As]1SCCCS1 | Active | 70% | Active | Dose-Dependent Effect | Active | Dose-Dependent Effect | Dose-Dependent Effect | Dose-Dependent Effect | Dose-Dependent Effect | Dose-Dependent Effect | Active
3 | Nc1ccc([As]2SCCCS2)cc1 | Active | 40% |  |  |  |  |  |  |  |  | 

Active and inactive are the calls of the source. The rule behind the calls is not given here.
